# Assay results taken from article PMC5516987, “Safety and pharmacodynamics of dalazatide, a Kv1.3 channel inhibitor, in the treatment of plaque psoriasis: A randomized phase 1b trial” (PLoS ONE, 2017).
# Where two headings read alike, the source gives them in different places.
# Experiments:
# [1] = cited from earlier work
# From the text: One potassium channel blocking drug that has been tested in humans is the nonselective potassium channel inhibitor, 4-aminopyridine (4-AP, fampridine, dalfampridine). Various formulations of 4-AP have been evaluated for their potential to increase nerve conduction and improve function in spinal cord injury, autoimmune diseases involving the nervous system, and diseases of nerve conduction. The most commonly reported adverse events are paresthesia (perioral and digital), nausea, dizziness, headache, and insomnia. Although infrequent, the most serious toxicity reported in patients treated ...
# [2] = tested on: viral and bacterial infections; conditions: chronically treated animals, versus vehicle; cited from earlier work
# From the text: Dalazatide (previously referred to as ShK-186 and SL5) is a 37-amino acid synthetic peptide that is a specific inhibitor of the voltage-gated Kv1.3 potassium channel. It is a derivative of ShK, which was originally isolated from the venom of the sea anemone Stichodactyla helianthus. Human T cells rely on two potassium channels, Kv1.3 and KCa3.1 to maintain the calcium signaling required for their activation and differentiation, by maintaining a balance between calcium influx and potassium efflux. Chronically activated memory T cells that rely on upregulation of Kv1.3 expression for ...
# healthy volunteers [3] = conditions: cited from earlier work
# From the text: Dalazatide has been evaluated for safety and tolerability in both healthy volunteers as well as patients with plaque psoriasis. No serious adverse events, discontinuations due to adverse events, or deaths occurred during this study and none have occurred during the clinical development program for dalazatide. […] The most common treatment-related adverse events for dalazatide were instances of paresthesia and hypoesthesia that were somewhat dose dependent. […] The drug product consists of ShK -186 formulated at 1 mg/mL in an isotonic solution of water for injection and USP grade sodium phosphate (10 mM), sodium chloride (0.8%), and Polysorbate 20 (0.05%). The drug product must be di ...
# [4] = Plasma pharmacokinetics by 2D-LC-MS/MS; format: in vivo, human; conditions: for Cmax, mean (SD) / Cmax: LLOQ 75 pg/ml; for AUClast, mean (SD) / AUC(0-t): linear trapezoidal rule; for Tmax / Cmax / AUC(0-t): human; for Tmax: read-out: Tmax, median (range); for Cmax: LLOD 10 pg/ml, values between extrapolated, read-out: Cmax, mean (SD); for AUC(0-t): time 0 to last measurable point (to 4 h), read-out: AUClast, mean (SD)
# Description: Pharmacokinetic (PK) analysis, including serum concentration, maximum concentration (Cmax), time to reach Cmax (tmax), and area under the curve (AUC) from time 0 to the last measurable time point calculated using the linear trapezoidal rule, were assessed as secondary endpoints for all patients. Plasma samples were obtained on Day 1 (predose, 0.083, 0.25, 0.5, 1, 2, and 4 hour), Day 15 (predose), and Day 29 (predose, 0.083, 0.25, 0.5, 1, 2, 4, hour). The PK samples were analyzed for dalazatide concentration by using a qualified high-sensitivity, two-dimensional liquid chromatography tandem mass spectrometry (2D-LC-MS/MS)-based assay. The lower limit of quantification (LLOQ) for the qualified method was 75 pg/ml. The lower limit of detection (LLOD) of the assay based on the standard curve was set as 10 pg/ml, and reported values for samples between the LLOQ and LLOD were extrapolated from the assay standard curve. Any samples below the LLOD were reported as below the limit of quantitation.
# healthy volunteers [5] = conditions: cited from earlier work; for Group-median exposure: ShK-186/198, ref study 186-01, Investigator Brochure
# Description: The drug product consists of ShK -186 formulated at 1 mg/mL in an isotonic solution of water for injection and USP grade sodium phosphate (10 mM), sodium chloride (0.8%), and Polysorbate 20 (0.05%). The drug product must be di ...
# [6] = tested on: patients with mild-to-moderate plaque psoriasis; assay: Treatment-emergent adverse events, phase 1b trial; format: in vivo, human; conditions: for Discontinuation due to AE / Patients with any AE / Patients with severe AE / Related AE: Chills / Related AE: Feeling hot / Related AE: Hypoesthesia / Related AE: Injection site pain / Related AE: Muscle contractions (involuntary) / Related AE: Muscle spasms / Related AE: Paresthesia / Related AE: Sensitivity of teeth / Patients with related AE: n = 10; for Patients with related AE: related = possible, probable or definite
# Description: The trial was a double-blind (subject and investigator), placebo-controlled study conducted at two Canadian centers. The trial was conducted under an investigational new drug application approved by the US Food and Drug Administration and the Institutional Review Board, and was performed in accordance with the Declaration of Helsinki and with the applicable International Conference on Harmonization Guidelines. A total of 24 patients with active plaque psoriasis were randomized 5:5:2 to receive dalazatide at 30 mcg/dose, 60 mcg/dose, or placebo twice weekly by subcutaneous injection into the abdominal fat pad (9 doses total) (Fig 1; S1 CONSORT Checklist and S1 Protocol). The study randomization was prepared by Innovaderm using Medrio’s Electronic Data Capture system (San Francisco, CA). The sample size chosen for this study was based upon precedent set by other studies of a similar nature and was not based on power calculations. Patients were screened to assess their eligibility to enter the study within 30 days of the Day 1 (first-dose) visit. Dose administration and evaluation were on Days 1, 4, 8, 11, 15, 18, 22, 25, and 29. Additional follow-up evaluations were on Days 32, 43, and 57. This was a double-blind, placebo-controlled study. As such, except for the specifically designated unblinded study site clinical and ancillary staff, the Investigators and remaining study site clinical staff were blinded as to treatment. The unblended staff members were not involved in any on-study data collection. Patients were enrolled in the study beginning October 2014 and the last patient last visit was in March 2015.
# Safety was assessed on the basis of vital signs (weight, blood pressure, pulse, oral temperature, and respiratory rate) and physical examination on all dose administration and evaluation days. A neurological exam was performed on Days 1 and 57. Laboratory testing (urinalysis, serum chemistry, and hematology) was performed on Days −1, 8, 15, 22, 25, and 57.
# [7] = Anti-drug antibody (ADA) ELISA with immune-depletion specificity assay; format: in vivo, human; conditions: serum, Days −1, 15, 29 and 57; ELISA plus specificity assay
# From the text: Serum samples were collected from all patients on Days −1, 15, 29, and 57 and analyzed for dalazatide anti-drug antibodies (ADA) by a non-GLP ADA ELISA, utilizing derail dilutions of anti-dalazatide monoclonal antibody P3B3 in pooled human serum as the primary antibody and a horseradish peroxidase conjugated recombinant protein A/G secondary antibody. Optical densities for each well were obtained using a spectrophotometer set at 450 nm wavelength. Samples with readings above the ELISA cutoff point were analyzed by using an immune-depletion assay to assess antibody specificity. Samples with a ≥50% reduction of signal after incubation with dalazatide were considered to be positive for specific anti-dalazatide antibodies.
# [8] = Day 29 (repeat dosing, twice weekly), 60 mcg SC, n = 10, plasma, 2D-LC-MS/MS
# [9] = 30 mcg/dose SC twice weekly, 9 doses
# [10] = 60 mcg/dose SC twice weekly, 9 doses
# [11] = all dalazatide patients (30 and 60 mcg/dose pooled)
smiles,measurement,setting,value
CC[C@H](C)[C@@H]1NC(=O)[C@@H](NC(=O)[C@H](CO)NC(=O)[C@H](CCCNC(=N)N)NC(=O)COCCOCCNC(=O)[C@@H](N)Cc2ccc(OP(=O)(O)O)cc2)CSSC[C@@H](C(N)=O)NC(=O)[C@H]([C@@H](C)O)NC(=O)CNC(=O)[C@@H]2CSSC[C@@H]3NC(=O)[C@H](CCC(N)=O)NC(=O)[C@H](Cc4ccccc4)NC(=O)[C@H](C)NC(=O)[C@H]([C@@H](C)O)NC(=O)[C@H](CSSC[C@H](NC(=O)[C@H](Cc4ccccc4)NC(=O)[C@H](CO)NC(=O)[C@H](CC(C)C)NC(=O)[C@H](CCCNC(=N)N)NC(=O)[C@H](Cc4ccc(O)cc4)NC(=O)[C@H](CCCCN)NC(=O)[C@H](CCSC)NC(=O)[C@H](CO)NC(=O)[C@H](Cc4c[nH]cn4)NC(=O)[C@H](CCCCN)NC3=O)C(=O)N[C@@H](CCCNC(=N)N)C(=O)N[C@@H](CCCCN)C(=O)N[C@@H]([C@@H](C)O)C(=O)N2)NC(=O)[C@H](CCCNC(=N)N)NC(=O)[C@H](CO)NC(=O)[C@H](CCCCN)NC(=O)[C@@H]2CCCN2C(=O)[C@H]([C@@H](C)CC)NC(=O)[C@H]([C@@H](C)O)NC(=O)[C@H](CC(=O)O)NC1=O [Dalazatide],Distribution across the intact blood-brain barrier,[1],not readily distributed across the intact blood-brain barrier
same,Clearance of viral and bacterial infections,[2],able to clear viral and bacterial infections similar to vehicle treated animals
same,Patients who experienced paresthesia or hypoesthesia,"healthy volunteers [3]; 5 and 15 mcg/dose cohorts, ref ClinicalTrials.gov NCT02446340",only a portion of patients
same,Full neurological evaluations,"healthy volunteers [3]; in the presence of ongoing sensory-related adverse events and after they resolved, ref NCT02446340",considered normal
same,Subjects with paresthesia,"healthy volunteers [3]; subjects who received ≥15 µg twice weekly for 9 doses, ref study 186-02",most
same,Dose proportionality of exposure (mean Cmax and AUClast),"[4]; Day 1, 30 versus 60 mcg/dose",less than dose-proportional
same,"Cmax, mean (SD)","[4]; Day 29 (repeat dosing, twice weekly), 30 mcg SC, n = 10, plasma, 2D-LC-MS/MS",76.7 (32.5) pg/ml
same,"AUClast, mean (SD)","[4]; Day 29 (repeat dosing, twice weekly), 30 mcg SC, n = 10, plasma",50.6 (23.3) h*pg/ml
same,"Tmax, median (range)",[4]; [8],"0.250 (0.0833, 0.500) hours"
same,"Cmax, mean (SD)",[4]; [8],137 (56.0) pg/ml
same,"AUClast, mean (SD)","[4]; Day 29 (repeat dosing, twice weekly), 60 mcg SC, n = 10, plasma",88.7 (36.3) h*pg/ml
same,Dose proportionality of exposure (mean Cmax and AUClast),"[4]; Day 29, 30 versus 60 mcg/dose",approximately dose proportional
same,Tmax,"[4]; in vivo, 30 ug, Day 29 (repeat dosing, twice weekly), 30 mcg SC, n = 10, plasma, 2D-LC-MS/MS",15 min
same,Cmax,"[4]; Day 1 (single dose), 30 mcg SC, n = 10, plasma, 2D-LC-MS/MS",0.0853 ng/mL
same,Tmax,"[4]; Day 1 (single dose), 30 mcg SC, n = 10, plasma, 2D-LC-MS/MS, sampling to 4 h",15.5 min
same,AUC(0-t),"[4]; Day 1 (single dose), 30 mcg SC, n = 10, plasma",0.0553 ng·h/mL
same,Cmax,"[4]; Day 1 (single dose), 60 mcg SC, n = 10, plasma, 2D-LC-MS/MS",0.137 ng/mL
same,Tmax,"[4]; Day 1 (single dose), 60 mcg SC, n = 10, plasma, 2D-LC-MS/MS, sampling to 4 h",15 min
same,AUC(0-t),"[4]; Day 1 (single dose), 60 mcg SC, n = 10, plasma",0.0784 ng·h/mL
same,"Accumulation, Day 29 versus Day 1","[4]; twice weekly SC dosing, 30 or 60 mcg",little or no accumulation
same,Dose proportionality of single-dose systemic exposure,"healthy volunteers [5]; 5 to 60 µg, ref study 186-01",generally dose-proportional
same,Group-median exposure,"healthy volunteers [5]; single 15 µg dose, healthy volunteers",0.478 ng·h/mL
same,Group-median exposure,"healthy volunteers [5]; single 30 µg dose, healthy volunteers",0.848 ng·h/mL
same,Group-median exposure,"healthy volunteers [5]; single 60 µg dose, healthy volunteers",1.42 ng·h/mL
same,Tolerability,"healthy volunteers [5]; single doses of 5, 15, 30 and 60 µg, healthy volunteers, ref study 186-01",well tolerated
same,Serious adverse events or discontinuation of treatment,"[6]; 30 and 60 mcg/dose SC twice weekly, 9 doses",no serious adverse events or discontinuation of treatment occurred
same,Discontinuation due to AE,[6]; [9],0 n (%)
same,Patients with any AE,[6]; [9],10 (100) n (%)
same,Patients with severe AE,[6]; [9],0 n (%)
same,Related AE: Chills,[6]; [9],1 (10) n (%)
same,Related AE: Feeling hot,[6]; [9],0 n (%)
same,Related AE: Hypoesthesia,[6]; [9],9 (90) n (%)
same,Related AE: Injection site pain,[6]; [9],1 (10) n (%)
same,Related AE: Muscle contractions (involuntary),[6]; [9],0 n (%)
same,Related AE: Muscle spasms,[6]; [9],4 (40) n (%)
same,Related AE: Paresthesia,[6]; [9],7 (70) n (%)
same,Related AE: Sensitivity of teeth,[6]; [9],0 n (%)
same,Patients with related AE,[6]; [9],10 (100) n (%)
same,Discontinuation due to AE,[6]; [10],0 n (%)
same,Patients with any AE,[6]; [10],10 (100) n (%)
same,Patients with severe AE,[6]; [10],0 n (%)
same,Related AE: Chills,[6]; [10],2 (20) n (%)
same,Related AE: Feeling hot,[6]; [10],2 (20) n (%)
same,Related AE: Hypoesthesia,[6]; [10],8 (80) n (%)
same,Related AE: Injection site pain,[6]; [10],3 (30) n (%)
same,Related AE: Muscle contractions (involuntary),[6]; [10],2 (20) n (%)
same,Related AE: Muscle spasms,[6]; [10],3 (30) n (%)
same,Related AE: Paresthesia,[6]; [10],7 (70) n (%)
same,Related AE: Sensitivity of teeth,[6]; [10],4 (40) n (%)
same,Patients with related AE,[6]; [10],10 (100) n (%)
same,Patients with headache,[6]; [11],15%
same,Patients with muscle spasms,[6]; [11],35%
same,Patients with nasopharyngitis,[6]; [11],30%
same,Patients with sensitivity of teeth,[6]; [11],20%
same,Patients with hypoesthesia,"[6]; all dalazatide patients (30 and 60 mcg/dose pooled), mild (Grade 1), temporary",85%
same,Patients with paresthesia,"[6]; all dalazatide patients (30 and 60 mcg/dose pooled), mild (Grade 1), hands, feet or perioral area",70%
same,Laboratory abnormalities and changes in vital signs,[6]; over the course of the study,No significant laboratory abnormalities or changes in vital signs
same,Patients who developed antibodies to dalazatide,[7],None
